US9944624B2 (dated 2018)
Like-named read-outs stand apart in the source and are kept apart here.

By UniProt entry, the sequences of proteins in these tests, tags left out. Residues count along the entry.
UniProt Q13231, 22-466: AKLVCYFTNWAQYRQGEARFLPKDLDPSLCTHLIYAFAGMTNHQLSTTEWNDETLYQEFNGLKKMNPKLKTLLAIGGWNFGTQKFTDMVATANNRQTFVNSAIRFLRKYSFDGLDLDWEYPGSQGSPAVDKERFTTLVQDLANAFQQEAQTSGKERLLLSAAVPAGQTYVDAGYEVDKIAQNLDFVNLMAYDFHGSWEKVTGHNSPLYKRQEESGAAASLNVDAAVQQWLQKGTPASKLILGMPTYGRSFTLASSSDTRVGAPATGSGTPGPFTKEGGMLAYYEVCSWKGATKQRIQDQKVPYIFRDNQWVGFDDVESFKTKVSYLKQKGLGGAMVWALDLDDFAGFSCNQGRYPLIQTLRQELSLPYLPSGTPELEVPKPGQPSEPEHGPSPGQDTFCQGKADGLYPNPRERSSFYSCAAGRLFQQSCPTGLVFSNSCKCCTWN

Biological target: recombinant human CHIT1 (Homo sapiens (Human), UniProt Q13231)
Assay: Human CHIT1 activity assay (fluorescent 4MU substrate)
Assay type: biochemical

| SMILES | IC50 [nM] | IC50 (read-out: Activity on hCHIT1, IC50, citrate buffer pH 5.2, 37° C., 60 minutes, substrate 4-methylumbelliferyl β-D-N,N′,N″-triacetylchitotriose) [nM] |
| --- | --- | --- |
| CO[C@@H]1CCN(C2CCN(c3nnc(N)[nH]3)CC2)[C@@H](Cc2ccc(Cl)cc2)C1 | 1000 to 10000 | – |
| Nc1nnc(N2CCC(N3CCC[C@@H]3Cc3ccc(Cl)cc3)CC2)[nH]1 [Example 24, (R)-5-(4-(2-(4-chlorobenzyl)pyrrolidin-1-yl)piperidin-1-yl)-4H-1,2,4-triazol-3-amine] | – | < 100 |
| CO[C@H]1CCN(C2CCN(c3nnc(N)[nH]3)CC2)[C@@H](Cc2ccc(Cl)cc2)C1 | 100 to 1000 | – |
